Measurements published in patent publication US10906889B2, “Polycyclic inhibitors of cyclin-dependent kinase 7 (CDK7)” (Dana-Farber Cancer Institute, Inc., priority 2013, dated 2021).

The chains behind the UniProt entries cited, without tags or fusion partners.
UniProt P50613, whole entry: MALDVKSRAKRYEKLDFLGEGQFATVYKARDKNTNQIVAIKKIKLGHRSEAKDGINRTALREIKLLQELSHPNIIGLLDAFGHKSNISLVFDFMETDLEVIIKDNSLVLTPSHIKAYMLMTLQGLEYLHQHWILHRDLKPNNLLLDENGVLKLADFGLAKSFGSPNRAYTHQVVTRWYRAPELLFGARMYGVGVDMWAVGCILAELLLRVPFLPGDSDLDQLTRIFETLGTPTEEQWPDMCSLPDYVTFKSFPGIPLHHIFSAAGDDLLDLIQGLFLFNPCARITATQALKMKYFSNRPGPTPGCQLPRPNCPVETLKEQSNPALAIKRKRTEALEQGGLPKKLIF
UniProt P51948, whole entry partner: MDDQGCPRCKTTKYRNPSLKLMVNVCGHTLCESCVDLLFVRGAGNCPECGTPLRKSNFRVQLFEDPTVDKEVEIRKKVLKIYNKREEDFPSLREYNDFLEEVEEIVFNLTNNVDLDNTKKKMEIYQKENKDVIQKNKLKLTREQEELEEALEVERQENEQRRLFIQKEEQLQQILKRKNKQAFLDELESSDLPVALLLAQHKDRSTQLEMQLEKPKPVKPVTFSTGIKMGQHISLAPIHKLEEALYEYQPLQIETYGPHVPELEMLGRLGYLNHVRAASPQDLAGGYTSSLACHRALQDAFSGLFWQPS
UniProt P51946, whole entry partner: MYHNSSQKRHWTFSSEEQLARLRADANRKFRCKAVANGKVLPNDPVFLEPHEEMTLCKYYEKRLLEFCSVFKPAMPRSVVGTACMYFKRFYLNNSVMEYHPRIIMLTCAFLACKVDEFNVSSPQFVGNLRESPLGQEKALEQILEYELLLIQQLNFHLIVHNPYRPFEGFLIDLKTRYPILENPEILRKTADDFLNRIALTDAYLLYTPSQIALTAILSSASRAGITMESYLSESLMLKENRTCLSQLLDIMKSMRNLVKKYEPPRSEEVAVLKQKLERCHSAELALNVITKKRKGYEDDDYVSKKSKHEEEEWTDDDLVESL

Columns and labels:
[1] = molecular target: CDK7 (Homo sapiens, UniProt P50613); test: Adapta kinase assay (Life Technologies), CDK7; type: biochemical; conditions: read-out: CDK7 IC50, Table 1C, co-factors cyclin H and MNAT1
[2] = system: Jurkat cells; conditions: read-out: Jurkat IC50; blood cancer cell line; 72 hour

Structure (SMILES)	IC50 [1] [nM]	IC50 [2] [nM]
COCCN1CCN(C/C=C/C(=O)Nc2ccc(C(=O)N[C@H]3CCC[C@@H](Nc4ncc(Cl)c(-c5c[nH]c6ccccc56)n4)C3)cc2)CC1	< 100	< 500
O=C(/C=C/CN1CCN(C2CC2)CC1)Nc1ccc(C(=O)N[C@H]2CCC[C@@H](Nc3ncc(Cl)c(-c4cnn5ccccc45)n3)C2)cc1	< 100	
O=C(/C=C/CN1CCOCC1)Nc1ccc(C(=O)N[C@H]2CCC[C@@H](Nc3ncc(Cl)c(-c4cnn5ccccc45)n3)C2)cc1	< 100	
